# According to paper PMC4769084, “Aminoglycoside binding and catalysis specificity of aminoglycoside 2″-phosphotransferase IVa: A thermodynamic, structural and kinetic study” (Biochimica et Biophysica Acta, 2016):
# Tested on: Kanamycin A
# Test: purified protein, by the assay type
# Conditions: other: saturating MgATP (2.5 mM), aminoglycoside 0 to 100 μM, 25 °C, pH 7.5, na = no detectable activity
substance,measurement,value
APH(2″)-IVa (Enterococcus casseliflavus),Km,4.0 ± 0.5 µM
same,kcat,0.90 ± 0.02 s^− 1
same,kcat/Km,0.225 μM^− 1 s^− 1
